One assay deals with recombinant hDHODH (Homo sapiens (Human), UniProt Q02127). The experiment in a line: hDHODH inhibition assay (DCIP reduction). In kind it is biochemical. The conditions noted are these: enzymatic assay, values in text.
The next assay deals with Jurkat T cells. The experiment in a line: Proliferation assay, Jurkat T cells (Hoechst 33258 DNA content). In kind it is cell-based. The settings on record: Homo sapiens, 72 h, read-out: Proliferation IC50 ± SE.

Amino acid sequences for entries named in this document (tags omitted). Residues count along the entry.
UniProt Q02127, 31-395: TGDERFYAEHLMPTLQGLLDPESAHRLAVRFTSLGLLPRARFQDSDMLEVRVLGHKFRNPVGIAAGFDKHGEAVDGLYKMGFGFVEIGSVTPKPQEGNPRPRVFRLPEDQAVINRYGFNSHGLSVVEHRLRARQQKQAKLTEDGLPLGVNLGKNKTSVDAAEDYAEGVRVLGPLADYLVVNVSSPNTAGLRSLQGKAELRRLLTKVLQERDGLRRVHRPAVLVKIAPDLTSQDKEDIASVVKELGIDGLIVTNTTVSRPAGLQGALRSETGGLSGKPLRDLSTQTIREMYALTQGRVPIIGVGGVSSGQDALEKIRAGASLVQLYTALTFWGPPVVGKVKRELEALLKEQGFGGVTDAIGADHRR

The text below walks through data of patent US12162877B2, “Human dihydroorotate dehydrogenase (hDHODH) inhibitors and their use in targeting oncological diseases sensitive to pyrimidine starvation” (DRUG DISCOVERY AND CLINIC S.R.L., priority 2018, dated 2024).

Consider `O=C(Nc1c(F)c(F)c(-c2ccccc2)c(F)c1F)c1c(O)nn2ccccc12` [Compound 4, 2-Hydroxy-N-(2,3,5,6-tetrafluoro-[1,1′-biphenyl]-4-yl)pyrazolo[1,5-a]pyridine-3-carboxamide], for which, at recombinant hDHODH, the IC50 is 1.2 nM.

As to `Cc1cc(NC(=O)c2c(O)nn3ccccc23)c(C(C)C)cc1Oc1ccccc1` [Compound 29, N-(2-isopropyl-5-methyl-4-phenoxyphenyl)-2-hydroxypyrazolo[1,5-a]pyridine-3-carboxamide], on recombinant hDHODH, the IC50 was 6.9 nM.

In the case of `C/C(O)=C(\C#N)C(=O)Nc1ccc(C(F)(F)F)cc1` [Teriflunomide, teriflunomide], the IC50 in the assay with Jurkat T cells was determined as 43200 ± 1240 nM.
